Measured values as given in publication PMC10518340, “Secreted LRPAP1 binds and triggers IFNAR1 degradation to facilitate virus evasion from cellular innate immunity” (Signal Transduction and Targeted Therapy, 2023).

System: IFNAR1
Experiment: IFNAR1 mRNA level, HEK-293T cells
Type: cell-based, human
Conditions: with or without 1000 U/ml IFN-α2b

LDL-receptor-related protein-associated protein 1 [LRPAP1]
IFNAR1 mRNA level: no effect on IFNAR1 mRNA levels
